4 molecules from PubChem BioAssay AID1011 (National Center for Advancing Translational Sciences (NCATS), 2008) can be followed below.

The entries are a selection whose mix differs from that of the whole data set. Calls of active or inactive are those of the source. Calls come from the whole dose curve.

A short description of this assay: Confirmation Concentration-Response Assay for Inhibitors of the Schistosoma mansoni Redox Cascade. To be noted: S. mansoni TGR/Prx2 coupled, NADPH fluorescence kinetics. The text has this:
NIH Molecular Libraries Screening Centers Network [MLSCN] NIH Chemical Genomics Center [NCGC] MLSCN Grant: MH076449-01 Assay Provider: Prof David Williams, Illinois State University This is a confirmation assay for PubChem BioAssay AID 448. Schistosoma mansoni, a causative agent of schistosomiasis, resides in the bloodstream of their host up to 30 years without being eliminated by the host immune attack. One proposed survival mechanism is the production of an antioxidant "firewall" that neutralizes the oxidative assault of the host's immune attack. Schistosoma mansoni peroxiredoxins (Prx) are important parasite antioxidant proteins that play a crucial role in redox balance mechanisms. […] First, the proteins are essential for the parasite survival. […] Third, the protein(s) is amenable for study at the molecular level and can be produced in bacteria in large quantities, in soluble and active form. Inhibition of Prx activity was screened in a coupled-enzyme format with reducing equivalents being transferred from NADPH to […] via thioredoxin/glutathione reductase (TGR)-catalyzed reaction, then from thioredoxin to hydrogen peroxide via Prx-catalyzed electron transfer. A decrease in the fluorescence intensity of NADPH was used to measure the enzyme activity. Purified S. mansoni TGR and Prx were provided by Professor David L. Williams, Illinois State University.
Buffer: 100 mM phosphate buffer, pH 7.4, 10 mM EDTA, 0.01% Tween-20. […] 100 uM NADPH/25 nM TGR/700 uM GSH/50 nM Prx2 mixture in columns 1, 2, 5-48. Titration of control potassium antimonyl tartrate (PAT, from 1 mM, then 1:5) pin-transferred to lower half of column 2. Column 1 and upper half of column 2 are neutral (100% activity). Assay Steps: Three uL of reagents were dispensed to 1536-well Greiner black plates. Compounds and controls (20 nL) were transferred via Kalypsys PinTool. The plates were incubated for 15 min at room temperature, and then a 1 uL aliquot of 400 uM NADPH/700 uM GSH was added, immediately followed by a 1uL aliquot of 2.5 mM H2O2 (to start the reaction). The plate was transferred to ViewLux (Perkin-Elmer) High-throughput CCD imager where kinetic measurements (every 30 sec, for a total of 8 min) of NADPH fluorescence were taken using 365 nm excitation/450 nm emission filter set. During dispense, enzyme-containing reagent bottles were kept submerged into 4 deg C water bath to minimize degradation.
Consider `O=P(Nc1nccs1)(c1ccccc1)c1ccccc1`, for which the call was inactive. As for `O=P(Nc1nccs1)(c1ccccc1)c1nc2ccccc2s1` (centres undefined), the Potency is active: 20 nM.

Consider `O=P(Nc1ccc(Cl)cn1)(c1ccccc1)c1nc2ccccc2s1` (centres undefined), for which the Potency is active: 250 nM. The same measure, in the same setting: the value for `CCc1nc2c(n1)c1c(non1O)c1c2no[n+]1[O-]` was active: 13100 nM.
